Laboratory results as given in article PMC3961306, “Comparison of the Cancer Gene Targeting and Biochemical Selectivities of All Targeted Kinase Inhibitors Approved for Clinical Use” (PLoS ONE, 2014).

By UniProt entry, the sequences of proteins in these tests, tags left out.
UniProt Q15418, whole entry, stated change not applied: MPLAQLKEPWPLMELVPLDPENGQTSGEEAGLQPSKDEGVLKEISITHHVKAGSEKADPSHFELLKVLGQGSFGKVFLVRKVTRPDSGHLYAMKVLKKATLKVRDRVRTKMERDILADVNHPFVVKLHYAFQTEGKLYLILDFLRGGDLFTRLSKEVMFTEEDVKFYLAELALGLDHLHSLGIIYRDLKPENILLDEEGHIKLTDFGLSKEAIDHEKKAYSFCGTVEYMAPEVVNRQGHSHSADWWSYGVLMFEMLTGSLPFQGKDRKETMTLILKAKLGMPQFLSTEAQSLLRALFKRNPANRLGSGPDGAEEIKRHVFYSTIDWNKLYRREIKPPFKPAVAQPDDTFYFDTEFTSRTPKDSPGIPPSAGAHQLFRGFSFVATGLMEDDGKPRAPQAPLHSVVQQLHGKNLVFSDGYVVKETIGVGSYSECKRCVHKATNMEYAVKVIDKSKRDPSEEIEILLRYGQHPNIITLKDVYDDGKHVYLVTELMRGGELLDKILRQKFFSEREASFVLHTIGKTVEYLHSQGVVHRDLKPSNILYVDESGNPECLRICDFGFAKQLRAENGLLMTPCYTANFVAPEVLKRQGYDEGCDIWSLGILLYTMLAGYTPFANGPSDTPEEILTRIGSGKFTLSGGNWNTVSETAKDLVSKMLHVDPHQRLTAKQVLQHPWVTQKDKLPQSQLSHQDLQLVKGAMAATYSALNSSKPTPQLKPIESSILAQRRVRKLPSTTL
UniProt P41240, whole entry, stated change not applied: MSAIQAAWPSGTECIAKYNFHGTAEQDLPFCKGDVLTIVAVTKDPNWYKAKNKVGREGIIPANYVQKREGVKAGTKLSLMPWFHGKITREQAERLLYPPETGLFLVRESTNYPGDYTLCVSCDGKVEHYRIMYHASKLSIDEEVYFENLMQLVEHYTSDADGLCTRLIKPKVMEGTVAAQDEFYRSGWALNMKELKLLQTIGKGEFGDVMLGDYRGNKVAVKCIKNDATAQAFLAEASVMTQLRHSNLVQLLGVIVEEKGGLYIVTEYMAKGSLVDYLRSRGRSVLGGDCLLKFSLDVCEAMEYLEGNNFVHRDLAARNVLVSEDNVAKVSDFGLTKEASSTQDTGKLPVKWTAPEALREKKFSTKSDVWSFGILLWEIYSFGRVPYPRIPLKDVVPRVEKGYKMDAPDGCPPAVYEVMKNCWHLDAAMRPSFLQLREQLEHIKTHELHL
UniProt Q9Y2H1, whole entry, stated change not applied: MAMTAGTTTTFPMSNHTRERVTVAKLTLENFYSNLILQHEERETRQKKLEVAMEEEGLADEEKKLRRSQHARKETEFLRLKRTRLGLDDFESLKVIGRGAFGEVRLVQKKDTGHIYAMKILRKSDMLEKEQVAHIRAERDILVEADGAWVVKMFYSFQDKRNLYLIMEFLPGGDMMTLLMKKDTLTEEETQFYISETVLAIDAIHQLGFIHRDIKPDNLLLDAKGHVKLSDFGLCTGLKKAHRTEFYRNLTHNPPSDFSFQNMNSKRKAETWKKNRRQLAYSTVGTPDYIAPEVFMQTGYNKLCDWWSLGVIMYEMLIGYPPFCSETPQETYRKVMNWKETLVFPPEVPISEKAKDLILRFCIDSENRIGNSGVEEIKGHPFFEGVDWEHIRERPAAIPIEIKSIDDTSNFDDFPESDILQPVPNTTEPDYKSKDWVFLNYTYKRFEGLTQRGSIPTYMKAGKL
UniProt Q9H4B4, whole entry, stated change not applied: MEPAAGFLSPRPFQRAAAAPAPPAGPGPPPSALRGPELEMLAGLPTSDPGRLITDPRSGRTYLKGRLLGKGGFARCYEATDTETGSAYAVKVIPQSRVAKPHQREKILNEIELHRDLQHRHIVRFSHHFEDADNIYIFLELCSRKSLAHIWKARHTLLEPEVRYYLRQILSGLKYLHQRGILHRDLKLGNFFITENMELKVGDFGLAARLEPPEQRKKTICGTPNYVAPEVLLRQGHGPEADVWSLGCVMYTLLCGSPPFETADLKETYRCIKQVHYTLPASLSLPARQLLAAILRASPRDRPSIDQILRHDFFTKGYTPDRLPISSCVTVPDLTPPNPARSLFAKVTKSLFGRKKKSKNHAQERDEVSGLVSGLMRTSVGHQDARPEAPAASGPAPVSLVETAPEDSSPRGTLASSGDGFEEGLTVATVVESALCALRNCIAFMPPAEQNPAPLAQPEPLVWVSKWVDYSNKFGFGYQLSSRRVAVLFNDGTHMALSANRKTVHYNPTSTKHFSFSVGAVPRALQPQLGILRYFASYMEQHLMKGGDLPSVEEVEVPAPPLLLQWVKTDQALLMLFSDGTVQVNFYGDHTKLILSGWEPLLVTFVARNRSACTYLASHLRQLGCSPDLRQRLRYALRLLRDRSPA
UniProt Q13557, whole entry, stated change not applied: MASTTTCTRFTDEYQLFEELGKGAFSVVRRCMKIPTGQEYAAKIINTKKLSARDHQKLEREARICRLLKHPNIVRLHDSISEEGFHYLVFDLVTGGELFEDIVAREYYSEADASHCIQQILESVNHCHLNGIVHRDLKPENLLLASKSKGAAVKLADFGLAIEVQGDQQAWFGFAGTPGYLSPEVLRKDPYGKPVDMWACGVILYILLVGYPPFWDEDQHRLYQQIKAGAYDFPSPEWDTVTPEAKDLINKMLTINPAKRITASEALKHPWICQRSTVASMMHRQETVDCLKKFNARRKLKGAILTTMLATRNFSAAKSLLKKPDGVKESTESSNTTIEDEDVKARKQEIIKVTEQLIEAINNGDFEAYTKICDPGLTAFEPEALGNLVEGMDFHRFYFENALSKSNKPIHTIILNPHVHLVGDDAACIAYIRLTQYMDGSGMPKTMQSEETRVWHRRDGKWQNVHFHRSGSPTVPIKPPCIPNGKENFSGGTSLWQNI
UniProt P28482, whole entry, stated change not applied: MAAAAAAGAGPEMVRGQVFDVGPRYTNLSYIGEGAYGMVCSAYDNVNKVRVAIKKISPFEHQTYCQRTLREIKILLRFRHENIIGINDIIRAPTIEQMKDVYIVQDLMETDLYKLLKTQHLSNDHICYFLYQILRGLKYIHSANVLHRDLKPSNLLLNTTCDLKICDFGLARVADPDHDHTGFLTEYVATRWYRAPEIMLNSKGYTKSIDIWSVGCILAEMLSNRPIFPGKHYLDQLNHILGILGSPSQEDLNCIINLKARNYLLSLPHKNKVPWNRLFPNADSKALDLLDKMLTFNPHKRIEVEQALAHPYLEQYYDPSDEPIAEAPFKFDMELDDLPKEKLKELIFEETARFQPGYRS
UniProt Q9Y5S2, whole entry, stated change not applied: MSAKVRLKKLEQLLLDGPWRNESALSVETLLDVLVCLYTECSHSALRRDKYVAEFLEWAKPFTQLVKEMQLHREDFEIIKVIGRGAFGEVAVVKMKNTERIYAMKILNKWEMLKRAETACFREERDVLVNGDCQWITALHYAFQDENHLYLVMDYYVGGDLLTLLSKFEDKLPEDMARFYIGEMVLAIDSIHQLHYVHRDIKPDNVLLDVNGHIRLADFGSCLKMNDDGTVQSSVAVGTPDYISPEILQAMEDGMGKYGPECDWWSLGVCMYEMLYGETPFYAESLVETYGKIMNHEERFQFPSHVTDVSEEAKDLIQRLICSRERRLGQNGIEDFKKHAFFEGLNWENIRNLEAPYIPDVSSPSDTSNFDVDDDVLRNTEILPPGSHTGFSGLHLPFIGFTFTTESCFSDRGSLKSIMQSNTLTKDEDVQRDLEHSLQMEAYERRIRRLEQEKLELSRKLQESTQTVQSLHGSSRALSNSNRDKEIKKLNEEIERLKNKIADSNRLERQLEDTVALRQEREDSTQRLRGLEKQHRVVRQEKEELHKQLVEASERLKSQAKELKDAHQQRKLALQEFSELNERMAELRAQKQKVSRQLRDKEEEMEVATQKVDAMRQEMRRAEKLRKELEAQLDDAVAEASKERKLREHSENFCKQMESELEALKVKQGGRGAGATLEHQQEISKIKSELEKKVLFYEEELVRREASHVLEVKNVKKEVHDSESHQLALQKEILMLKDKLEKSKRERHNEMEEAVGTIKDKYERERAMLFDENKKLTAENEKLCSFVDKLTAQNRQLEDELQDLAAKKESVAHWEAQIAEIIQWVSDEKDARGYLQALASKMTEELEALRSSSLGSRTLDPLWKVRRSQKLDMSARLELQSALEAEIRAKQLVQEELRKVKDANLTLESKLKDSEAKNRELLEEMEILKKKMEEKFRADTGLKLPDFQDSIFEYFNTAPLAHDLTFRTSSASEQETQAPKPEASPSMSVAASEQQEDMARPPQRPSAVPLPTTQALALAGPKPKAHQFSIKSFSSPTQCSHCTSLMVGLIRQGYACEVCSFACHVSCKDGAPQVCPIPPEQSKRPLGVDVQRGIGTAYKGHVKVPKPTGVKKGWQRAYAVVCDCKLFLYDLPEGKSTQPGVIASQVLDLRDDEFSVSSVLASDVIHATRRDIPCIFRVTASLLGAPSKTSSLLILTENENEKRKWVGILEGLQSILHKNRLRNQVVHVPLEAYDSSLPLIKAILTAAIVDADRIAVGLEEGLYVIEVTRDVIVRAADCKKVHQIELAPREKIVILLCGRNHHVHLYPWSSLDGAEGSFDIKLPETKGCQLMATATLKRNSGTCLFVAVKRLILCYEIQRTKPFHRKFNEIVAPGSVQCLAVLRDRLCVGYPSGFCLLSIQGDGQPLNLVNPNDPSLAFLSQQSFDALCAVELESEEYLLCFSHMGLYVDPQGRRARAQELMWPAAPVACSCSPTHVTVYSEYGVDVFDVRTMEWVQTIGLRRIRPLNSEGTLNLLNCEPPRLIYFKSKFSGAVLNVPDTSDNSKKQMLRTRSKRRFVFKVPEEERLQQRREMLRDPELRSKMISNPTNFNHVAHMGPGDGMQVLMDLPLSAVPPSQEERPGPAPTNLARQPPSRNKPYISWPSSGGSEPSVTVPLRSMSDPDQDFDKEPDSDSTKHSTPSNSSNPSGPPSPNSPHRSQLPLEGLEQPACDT
UniProt Q9UK32, whole entry, stated change not applied: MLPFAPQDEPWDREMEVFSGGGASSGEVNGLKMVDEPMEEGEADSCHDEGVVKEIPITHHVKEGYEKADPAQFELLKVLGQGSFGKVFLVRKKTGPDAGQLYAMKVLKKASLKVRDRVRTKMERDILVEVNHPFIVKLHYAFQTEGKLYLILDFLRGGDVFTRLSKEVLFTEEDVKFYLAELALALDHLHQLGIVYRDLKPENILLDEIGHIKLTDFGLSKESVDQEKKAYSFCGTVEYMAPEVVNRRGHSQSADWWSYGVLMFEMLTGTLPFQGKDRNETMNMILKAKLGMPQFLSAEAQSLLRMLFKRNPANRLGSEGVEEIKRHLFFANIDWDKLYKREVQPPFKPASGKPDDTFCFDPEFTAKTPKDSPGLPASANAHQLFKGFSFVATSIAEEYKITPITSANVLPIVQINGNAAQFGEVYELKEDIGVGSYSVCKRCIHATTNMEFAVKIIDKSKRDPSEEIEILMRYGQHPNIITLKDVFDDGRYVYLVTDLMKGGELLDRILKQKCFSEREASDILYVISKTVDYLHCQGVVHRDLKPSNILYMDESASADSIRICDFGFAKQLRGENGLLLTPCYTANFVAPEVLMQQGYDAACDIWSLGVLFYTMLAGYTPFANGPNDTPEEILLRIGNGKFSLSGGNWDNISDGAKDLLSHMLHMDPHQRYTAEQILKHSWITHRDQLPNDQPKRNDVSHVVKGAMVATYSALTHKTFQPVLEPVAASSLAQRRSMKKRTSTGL
UniProt Q00534, whole entry, stated change not applied: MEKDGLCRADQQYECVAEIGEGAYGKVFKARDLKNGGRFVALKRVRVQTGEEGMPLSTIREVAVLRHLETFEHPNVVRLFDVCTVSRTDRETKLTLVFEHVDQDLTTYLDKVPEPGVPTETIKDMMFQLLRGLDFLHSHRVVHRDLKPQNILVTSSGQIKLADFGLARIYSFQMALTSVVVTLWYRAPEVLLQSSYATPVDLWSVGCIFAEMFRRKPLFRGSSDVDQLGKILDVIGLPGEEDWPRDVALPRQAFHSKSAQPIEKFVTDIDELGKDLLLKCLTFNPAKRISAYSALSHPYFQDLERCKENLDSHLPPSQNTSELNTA

How the values were obtained:
Assay in all cases: Kinase profiling in a biochemical assay panel (mobility shift assays and ELISA), %-inhibition at 1 μM; selectivity entropy
[1] = target: T1, panel of more than 300 wild-type and mutant kinases (313 kinase panel) (Homo sapiens, UniProt Q8TD19)
T1 sequence (Q8TD19 1-979): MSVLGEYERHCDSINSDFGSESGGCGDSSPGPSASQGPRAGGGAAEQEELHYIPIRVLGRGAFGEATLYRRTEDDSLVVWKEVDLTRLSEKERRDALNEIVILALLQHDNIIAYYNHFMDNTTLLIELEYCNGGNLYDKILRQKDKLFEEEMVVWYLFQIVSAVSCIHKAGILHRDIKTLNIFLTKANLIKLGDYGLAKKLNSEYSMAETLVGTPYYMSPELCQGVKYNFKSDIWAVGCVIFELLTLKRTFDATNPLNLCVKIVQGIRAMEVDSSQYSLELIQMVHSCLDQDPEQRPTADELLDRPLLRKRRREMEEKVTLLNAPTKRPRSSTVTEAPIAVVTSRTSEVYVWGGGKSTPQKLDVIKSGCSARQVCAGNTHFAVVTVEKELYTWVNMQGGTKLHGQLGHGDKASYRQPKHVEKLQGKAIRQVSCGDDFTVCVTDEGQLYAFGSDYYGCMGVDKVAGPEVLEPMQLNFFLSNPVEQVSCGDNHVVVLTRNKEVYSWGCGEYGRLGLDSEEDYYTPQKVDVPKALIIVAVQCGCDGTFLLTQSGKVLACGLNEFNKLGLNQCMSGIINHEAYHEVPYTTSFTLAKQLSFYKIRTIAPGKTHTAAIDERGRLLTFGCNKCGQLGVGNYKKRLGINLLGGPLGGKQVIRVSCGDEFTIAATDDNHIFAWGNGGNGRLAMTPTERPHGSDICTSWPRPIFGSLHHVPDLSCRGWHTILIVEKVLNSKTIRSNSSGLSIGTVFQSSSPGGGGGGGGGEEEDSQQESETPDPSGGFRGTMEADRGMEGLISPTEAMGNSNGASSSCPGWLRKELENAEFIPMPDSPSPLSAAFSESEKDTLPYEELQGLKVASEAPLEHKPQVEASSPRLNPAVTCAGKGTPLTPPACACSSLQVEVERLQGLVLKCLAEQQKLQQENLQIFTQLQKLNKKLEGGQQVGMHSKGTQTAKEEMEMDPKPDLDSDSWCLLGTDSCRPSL

[2] = target: panel of more than 300 wild-type and mutant kinases (313 kinase panel) (Homo sapiens, UniProt Q02750)
[3] = target: panel of more than 300 wild-type and mutant kinases (313 kinase panel) (Homo sapiens, UniProt Q15418)
[4] = target: panel of more than 300 wild-type and mutant kinases (313 kinase panel) (Homo sapiens, UniProt P41240)
[5] = target: panel of more than 300 wild-type and mutant kinases (313 kinase panel) (Homo sapiens, UniProt Q9Y2H1)
[6] = target: panel of more than 300 wild-type and mutant kinases (313 kinase panel) (Homo sapiens, UniProt Q9H4B4)
[7] = target: panel of more than 300 wild-type and mutant kinases (313 kinase panel) (Homo sapiens, UniProt Q13557)
[8] = target: panel of more than 300 wild-type and mutant kinases (313 kinase panel) (Homo sapiens, UniProt Q9UHD2)
[9] = target: T2, panel of more than 300 wild-type and mutant kinases (313 kinase panel) (Homo sapiens, UniProt Q8IY84)
T2 sequence (Q8IY84 1-436): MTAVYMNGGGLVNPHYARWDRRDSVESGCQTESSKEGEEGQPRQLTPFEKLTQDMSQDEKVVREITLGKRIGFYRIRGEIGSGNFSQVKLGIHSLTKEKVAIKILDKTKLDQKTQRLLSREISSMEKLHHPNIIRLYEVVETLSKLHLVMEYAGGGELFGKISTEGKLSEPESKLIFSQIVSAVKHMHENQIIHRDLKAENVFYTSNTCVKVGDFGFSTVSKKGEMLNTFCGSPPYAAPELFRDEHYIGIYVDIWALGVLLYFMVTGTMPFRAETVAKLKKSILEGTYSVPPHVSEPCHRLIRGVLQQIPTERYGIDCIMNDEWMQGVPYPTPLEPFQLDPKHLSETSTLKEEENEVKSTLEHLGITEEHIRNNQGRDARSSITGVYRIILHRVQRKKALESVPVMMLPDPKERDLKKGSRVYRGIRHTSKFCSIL

[10] = target: panel of more than 300 wild-type and mutant kinases (313 kinase panel) (Homo sapiens, UniProt P28482)
[11] = target: panel of more than 300 wild-type and mutant kinases (313 kinase panel) (Homo sapiens, UniProt Q9Y5S2)
[12] = target: panel of more than 300 wild-type and mutant kinases (313 kinase panel) (Homo sapiens, UniProt Q9UK32)
[13] = target: panel of more than 300 wild-type and mutant kinases (313 kinase panel) (Homo sapiens, UniProt Q00534)

Row | Structure (SMILES) | %-inhibition of NEK9 ([1]; 1 µM) | %-inhibition of MAP2K1 ([2]; 1 µM) | %-inhibition of RSK1 ([3]; 1 µM) | %-inhibition of CSK ([4]; 1 µM) | %-inhibition of NDR2 ([5]; 1 µM) | %-inhibition of PLK3 ([6]; 1 µM) | %-inhibition, CaMK2δ ([7]; 1 µM) | %-inhibition of TBK1 ([8]; 1 µM) | %-inhibition of MGC42105 ([9]; 1 µM) | %-inhibition of Erk2 ([10]; 1 µM) | %-inhibition of MRCKβ ([11]; 1 µM) | %-inhibition of RSK4 ([12]; 1 µM) | %-inhibition, CDK6/CycD3 ([13]; 1 µM) | also measured
1 | CNC(=O)c1ccccc1Sc1ccc2c(/C=C/c3ccccn3)n[nH]c2c1 [axitinib] |  |  |  |  |  |  |  |  |  |  |  |  |  | %-inhibition of NEK9 ([1]; kinase NEK9, 1 μM): 33%; %-inhibition of MAP2K1 ([2]; kinase MAP2K1, compound at 1 μM): 5.28%; %-inhibition of RSK1 ([3]; kinase RSK1, 1 μM): 49%; %-inhibition of CSK ([4]; kinase CSK, compound at 1 μM): 15%; %-inhibition of NDR2 ([5]; kinase NDR2, 1 μM): -2%; %-inhibition of PLK3 ([6]; kinase PLK3, 1 μM): -3.41%; %-inhibition, CaMK2δ ([7]; kinase CaMK2δ, 1 μM compound): 11%; %-inhibition of TBK1 ([8]; kinase TBK1, 1 μM): 34%; %-inhibition of MGC42105 ([9]; kinase MGC42105, 1 μM): -13%; %-inhibition of Erk2 ([10]; kinase Erk2, compound at 1 μM): -7.44%; %-inhibition of MRCKβ ([11]; kinase MRCKβ, 1 μM): 2.46%; %-inhibition of RSK4 ([12]; kinase RSK4, 1 μM): 44%; %-inhibition, CDK6/CycD3 ([13]; kinase CDK6/CycD3, 1 μM compound): -0.811%
2 | COc1cc2ncnc(Nc3ccc(F)c(Cl)c3)c2cc1OCCCN1CCOCC1 [gefitinib] | 3.17% | 17% | 13% | 13% | -5.66% | 9% | -16% | 26% | 0.704% | -6% | 0.477% | 23% | 9% | 
3 | C[C@@H]1CCN(C(=O)CC#N)C[C@@H]1N(C)c1ncnc2[nH]ccc12 [tofacitinib] | -2.83% | 3.52% | 1.49% | 1% | 24% | -5% | 16% | 9% | -9% | -6% | 1.08% | 2.67% | -1.56% | 
